# Apparent affinities of Ab-95 variants for a coronavirus HR2 peptide

All variants were tested on one target, the spike HR2 peptide PDVDLGDISGINAS (SARS-CoV-2).

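The parent was found by panning a naive human phage display library on the peptide. In library AAYL52, one, two or three CDR residues were substituted; doubles and triples were drawn at random. AlphaSeq pools MATa yeast showing the antibodies with MATalpha yeast showing the peptide. After mating in shaken culture at 30 °C for 16 h, diploids were selected and their barcode pairs sequenced. The ratio of observed to expected reads was calibrated, replicate by replicate, on BCL2-family standards whose Kd was known from biolayer interferometry. Mating was done three times.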

Each scFv is VH, a (GGGGS)3 linker, VL, as in the parent Ab-95, and differs from it in the CDRs of the light chain only.
VH: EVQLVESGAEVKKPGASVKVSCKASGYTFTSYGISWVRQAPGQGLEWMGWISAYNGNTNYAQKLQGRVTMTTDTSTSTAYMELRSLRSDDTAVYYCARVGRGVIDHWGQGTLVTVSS
VL: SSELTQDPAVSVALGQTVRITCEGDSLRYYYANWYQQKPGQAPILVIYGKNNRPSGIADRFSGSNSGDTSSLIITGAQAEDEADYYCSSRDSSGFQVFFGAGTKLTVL

Variants are written as CDR1, CDR2 and CDR3 of the light chain (limits as in the source). Parent: EGDSLRYYYAN, GKNNRPS, SSRDSSGFQVF.
Values are log10 of the apparent Kd in nM; lower means stronger binding.
"nd" means that the variant was in the library but no mating with the target was seen in that replicate; the authors take this as a sign of poor binding, and no number exists.
Parent in this assay: reference entry 2.31, copy in this library 2.25.
As a blank, each scFv also met three strains without target: over library AAYL52, 28% of these pairings were detected, typically at 3.91 and seldom below 2.90. For each scFv, signals with the empty controls are counted beside the result, with their mean in brackets.

{"CDR-L1": "EGDSLRYYYAE", "CDR-L2": "GMNNRPS", "CDR-L3": "SSYDSSGFQVF", "log10 Kd, replicates": "nd nd nd", "empty controls": "2/9 (3.22)"}
{"CDR-L1": "EGDSLRYYYAN", "CDR-L2": "GKINRNF", "CDR-L3": "SSRDSSGFQVF", "log10 Kd, replicates": "nd 4.00 nd", "empty controls": "0/9"}
{"CDR-L1": "EGDSLAYYYAN", "CDR-L2": "GKNGQPS", "CDR-L3": "SSRDSSGFQVF", "log10 Kd, replicates": "2.27 2.31 3.35", "empty controls": "6/9 (4.08)"}
{"CDR-L1": "EHDSLRYYYAN", "CDR-L2": "GKNNRRS", "CDR-L3": "SSRRSSGFQVF", "log10 Kd, replicates": "3.21 5.64 3.23", "empty controls": "3/9 (3.73)"}
{"CDR-L1": "EGDSQRYYYAN", "CDR-L2": "GKNNRHS", "CDR-L3": "SSRDSSGFQVV", "log10 Kd, replicates": "4.26 nd nd", "empty controls": "3/9 (3.82)"}
{"CDR-L1": "VGDSLRYYYAN", "CDR-L2": "GKNRRGS", "CDR-L3": "SSRDSSGFQVF", "log10 Kd, replicates": "2.75 3.04 2.39", "empty controls": "3/9 (4.19)"}
{"CDR-L1": "EGDSLRYYYAN", "CDR-L2": "GKNRRPS", "CDR-L3": "CSRDSSGFDVF", "log10 Kd, replicates": "2.91 2.63 3.48", "empty controls": "2/9 (3.66)"}
{"CDR-L1": "EGLSLRYYYAK", "CDR-L2": "GRNNRPS", "CDR-L3": "SSRDSSGFQVF", "log10 Kd, replicates": "4.35 2.98 2.83", "empty controls": "3/9 (3.68)"}
{"CDR-L1": "EGASLRYYYAN", "CDR-L2": "GKNNRPS", "CDR-L3": "SSRDWSGFQDF", "log10 Kd, replicates": "4.19 3.76 nd", "empty controls": "5/9 (3.94)"}
{"CDR-L1": "EGDHLRYYYAG", "CDR-L2": "GKNNRPS", "CDR-L3": "SSRDSSGRQVF", "log10 Kd, replicates": "3.61 nd nd", "empty controls": "3/9 (3.91)"}
{"CDR-L1": "EGDSLRYYYTN", "CDR-L2": "GRTNRPS", "CDR-L3": "SSRDSSGFQVF", "log10 Kd, replicates": "nd nd nd", "empty controls": "2/9 (2.88)"}
{"CDR-L1": "EGDSLRYYERN", "CDR-L2": "GKNNRPS", "CDR-L3": "SSRDSSGFQRF", "log10 Kd, replicates": "3.92 3.42 2.96", "empty controls": "5/9 (3.62)"}
{"CDR-L1": "EGDIGRYQYAN", "CDR-L2": "GKNNRPS", "CDR-L3": "SSRDSSGFQVF", "log10 Kd, replicates": "1.80 1.97 1.62", "empty controls": "3/9 (3.65)"}
{"CDR-L1": "EGDSLRYYYAN", "CDR-L2": "GKFNRPS", "CDR-L3": "SSIISSGFQVF", "log10 Kd, replicates": "4.58 nd nd", "empty controls": "1/9 (3.02)"}
{"CDR-L1": "EGDSFRYLYAV", "CDR-L2": "GKNNRPS", "CDR-L3": "SSRDSSGFQVF", "log10 Kd, replicates": "2.46 2.39 2.30", "empty controls": "3/9 (4.56)"}
{"CDR-L1": "EGMSLRYYWAN", "CDR-L2": "GKNNSPS", "CDR-L3": "SSRDSSGFQVF", "log10 Kd, replicates": "4.06 4.34 nd", "empty controls": "5/9 (3.57)"}
{"CDR-L1": "EGDSLRYYYAN", "CDR-L2": "QQNNRPS", "CDR-L3": "SSRDSSTFQVF", "log10 Kd, replicates": "nd nd nd", "empty controls": "0/9"}
{"CDR-L1": "EGDSLRYYYAF", "CDR-L2": "GKNNRPS", "CDR-L3": "SSRDSSGFQLE", "log10 Kd, replicates": "nd nd 3.62", "empty controls": "0/9"}
{"CDR-L1": "EGDSTFIYYAN", "CDR-L2": "GKNNRPS", "CDR-L3": "SSRDSSGFQVF", "log10 Kd, replicates": "4.31 5.30 4.06", "empty controls": "0/9"}
{"CDR-L1": "EGDSLRYYYAN", "CDR-L2": "GKNNRAY", "CDR-L3": "SSLDSSGFQVF", "log10 Kd, replicates": "nd nd nd", "empty controls": "6/9 (4.38)"}
{"CDR-L1": "EGQSLRYYYAQ", "CDR-L2": "GKNNRPS", "CDR-L3": "SKRDSSGFQVF", "log10 Kd, replicates": "5.13 3.74 4.22", "empty controls": "0/9"}
{"CDR-L1": "EGDSLRYYYAN", "CDR-L2": "GKNIRPQ", "CDR-L3": "SSRDSSGFQVF", "log10 Kd, replicates": "1.84 1.89 2.03", "empty controls": "0/9"}
{"CDR-L1": "EGDSYRYYYAN", "CDR-L2": "GKKNRPS", "CDR-L3": "SSRDSSGFQHF", "log10 Kd, replicates": "nd nd 4.13", "empty controls": "2/9 (3.58)"}
{"CDR-L1": "EGDTLRYYYAN", "CDR-L2": "GKNNRPS", "CDR-L3": "SSGDDSGFQVF", "log10 Kd, replicates": "2.78 3.58 3.88", "empty controls": "1/9 (4.12)"}

Picked from the list: the 2 lowest averages where every replicate gave a value.

{"CDR-L1": "EGDIGRYQYAN", "CDR-L2": "GKNNRPS", "CDR-L3": "SSRDSSGFQVF", "log10 Kd, replicates": "1.80 1.97 1.62", "empty controls": "3/9 (3.65)"}
{"CDR-L1": "EGDSLRYYYAN", "CDR-L2": "GKNIRPQ", "CDR-L3": "SSRDSSGFQVF", "log10 Kd, replicates": "1.84 1.89 2.03", "empty controls": "0/9"}

Reference: Engelhart et al. 2022, doi:10.1038/s41597-022-01779-4. File: FLAb, binding data.